Data reported in US10878939B2, “Methods and compositions for personalized pain management” (Children's Hospital Medical Center, priority 2014, dated 2020).

Columns and labels:
[1] = tested on: children undergoing tonsillectomy; test: Opioid-related adverse effects and PACU stay by sex, age and morphine dose (Example 6)
[2] = tested on: children undergoing tonsillectomy; test: Respiratory depression and prolonged PACU stay due to RD by ABCB1 genotype (Example 7)

CN1CC[C@]23c4c5ccc(O)c4O[C@H]2[C@@H](O)C=C[C@H]3[C@H]1C5 [morphine]
RD, number of cases ([1]; F, All): 20 | RD, number of cases ([1]; F, OSA Yes): 11 | RD, number of cases (%) ([1]; F, total morphine 0.2-<0.3 mg/kg): 3 (6) | RD, number of cases (%) ([1]; F, total morphine <0.2 mg/kg): 5 (12) | RD, number of cases ([1]; M, All): 18 | RD % ([2]; Blacks, ABCB1 rs1045642 CC, N=27): 22% | RD % ([2]; Blacks, ABCB1 rs1045642 TC, N=14): 43% | RD % ([2]; Blacks, ABCB1 rs1045642 TT, N=3): 33% | RD % ([2]; Blacks, ABCB1 rs1128503 CC, N=24): 21% | RD % ([2]; Blacks, ABCB1 rs1128503 TC, N=18): 39% | RD % ([2]; Blacks, ABCB1 rs1128503 TT, N=2): 50% | RD % ([2]; Blacks, ABCB1 rs2032582 GA, N=1): 0% | RD % ([2]; Blacks, ABCB1 rs2032582 GG, N=35): 26% | RD % ([2]; Blacks, ABCB1 rs2032582 GT, N=8): 50% | RD % ([2]; Blacks, ABCB1 rs2229109 CA, N=1): 0% | RD % ([2]; Blacks, ABCB1 rs2229109 CC, N=43): 30% | RD % ([2]; Blacks, ABCB1 rs9282564 AA, N=41): 27% | RD % ([2]; Blacks, ABCB1 rs9282564 GA, N=3): 67% | RD % ([2]; Whites, ABCB1 rs1045642 CC, N=49): 16% | RD % ([2]; Whites, ABCB1 rs1045642 TC, N=100): 19% | RD % ([2]; Whites, ABCB1 rs1045642 TT, N=70): 16% | RD % ([2]; Whites, ABCB1 rs1128503 CC, N=70): 23% | RD % ([2]; Whites, ABCB1 rs1128503 TC, N=102): 17% | RD % ([2]; Whites, ABCB1 rs1128503 TT, N=47): 11% | RD % ([2]; Whites, ABCB1 rs2032582 GA, N=7): 29% | RD % ([2]; Whites, ABCB1 rs2032582 GG, N=65): 20% | RD % ([2]; Whites, ABCB1 rs2032582 GT, N=100): 18% | RD % ([2]; Whites, ABCB1 rs2032582 TA, N=1): 0% | RD % ([2]; Whites, ABCB1 rs2032582 TT, N=46): 11% | RD % ([2]; Whites, ABCB1 rs2229109 CA, N=14): 36% | RD % ([2]; Whites, ABCB1 rs2229109 CC, N=205): 16% | RD % ([2]; Whites, ABCB1 rs9282564 GA, N=46): 17% | RD % ([2]; Whites, ABCB1 rs9282564 GG, N=2): 100%
